# Ab-14 light chain CDR variants: yeast mating affinities

Values reported by Engelhart et al. 2022, doi:10.1038/s41597-022-01779-4 (FLAb copy).

The target is the same throughout: PDVDLGDISGINAS, from the HR2 region of SARS-CoV-2 spike.

The variants keep the heavy chain, the linker and the frameworks of Ab-14 (scFv order VH, the linker GGGGSGGGGSGGGGS, VL).
VH: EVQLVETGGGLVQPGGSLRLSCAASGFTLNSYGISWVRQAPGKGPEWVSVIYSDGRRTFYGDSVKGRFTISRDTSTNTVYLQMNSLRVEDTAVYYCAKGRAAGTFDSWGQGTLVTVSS
VL: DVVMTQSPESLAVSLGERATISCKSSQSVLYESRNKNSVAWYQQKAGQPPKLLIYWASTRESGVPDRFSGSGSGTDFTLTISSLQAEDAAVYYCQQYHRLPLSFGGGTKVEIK

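The parent was found by panning a naive human phage display library on the peptide. AAYL50 was designed without a model: most single CDR substitutions and a random sample of double and triple ones. The assay is AlphaSeq: two haploid yeast populations carry antibody and antigen on their surface. Binding brings cells together so that they mate, and sequencing counts the barcode pairs among the diploids. Each replicate has its own calibration line, from reference interactions of the BCL2 family. Mating was done three times.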

Changes read parent residue, position, new residue, counted from the first residue of the VL shown. Values are log10 of the apparent Kd in nM; lower means stronger binding. Replicates are averaged; those with no signal do not enter the mean. "n.d." marks a missing value. The strain was present, yet no cells mated with the target were sequenced in that replicate, which points to weak or no binding. Empty control strains, which show no peptide, gave a signal in 18% of pairings with library AAYL50; the median was 4.19 and 95% of these signals were weaker than 2.99. No background was subtracted. The control count says in how many pairings with the empty strains this scFv gave a signal, with their mean in brackets.

| changes | log10 Kd, replicates | log10 Kd (nM), mean | control signals |
|---|---|---|---|
| K36V+S38Q+A40N | n.d. 4.37 n.d. | 4.37 | 4/9 (3.76) |
| E32H+W56L | n.d. n.d. n.d. | n.d. | 1/9 (4.18) |
| V29K+Y31D | 0.66 0.93 0.79 | 0.80 | 1/9 (5.76) |
| L30M+R34D+N35D | 0.13 0.42 0.31 | 0.28 | 1/9 (3.13) |
| E32Q+W56C+L102G | n.d. n.d. n.d. | n.d. | 0/9 |
| L30K+E32D+R60T | 2.79 3.32 2.97 | 3.03 | 5/9 (4.48) |
| S38P | 1.40 1.58 1.71 | 1.56 | 3/9 (4.48) |
| Q27W+S58F+L100M | 3.41 5.21 3.94 | 4.19 | 5/9 (4.09) |
| K24I+L100M+P101N | n.d. 4.66 n.d. | 4.66 | 0/9 |
| E32Q+T59K+Q96E | n.d. n.d. n.d. | n.d. | 0/9 |
| Q96Y+L102I | n.d. n.d. n.d. | n.d. | 0/9 |
| V39M+R60C+H98N | n.d. n.d. n.d. | n.d. | 1/9 (3.62) |
| S25T+E32T+S58W | n.d. 2.42 4.06 | 3.24 | 1/9 (3.97) |
| S38C+A57M+S58M | n.d. n.d. n.d. | n.d. | 0/9 |
| V29A+N37W+R60F | n.d. n.d. 2.61 | 2.61 | 0/9 |
| S25M+V29H+L30I | -0.09 0.20 0.03 | 0.05 | 6/9 (5.48) |
| S58M+H98G | 1.11 1.95 1.60 | 1.55 | 0/9 |
| V39Q+W56N+L100P | n.d. n.d. n.d. | n.d. | 1/9 (3.46) |
| Q27V+A57H+R99D | 4.64 3.86 n.d. | 4.25 | 2/9 (4.16) |
| A40V+P101L | n.d. n.d. n.d. | n.d. | 2/9 (4.84) |
| V29R+R99C+P101C | 1.96 2.13 2.11 | 2.06 | 1/9 (4.01) |
| S26T+N37K+P101K | n.d. 3.55 n.d. | 3.55 | 0/9 |
| K24T+Q27L+T59H | n.d. 3.12 5.49 | 4.31 | 1/9 (4.89) |
| V29N+Q95C+R99K | 2.55 3.06 2.62 | 2.74 | 0/9 |
| S28P+A40H+R99E | n.d. 3.24 n.d. | 3.24 | 1/9 (3.25) |
| S26V+S33W+E61V | 1.54 1.29 1.48 | 1.44 | 0/9 |
| K36Q+T59D+Y97R | n.d. 2.93 n.d. | 2.93 | 1/9 (3.24) |
| V29Q+Y31K+S33G | 1.25 1.09 1.28 | 1.21 | 0/9 |
| K36Y+A40G+S58L | 3.78 4.67 4.59 | 4.35 | 2/9 (4.31) |
| A40C+S58E | 3.15 2.96 3.60 | 3.24 | 2/9 (3.88) |
| S28P+L30K+R60W | n.d. 3.40 5.99 | 4.70 | 1/9 (5.12) |
| S33F+W56M+Q95V | 1.32 1.55 1.35 | 1.40 | 1/9 (3.91) |
| K24M+R34V+Q96I | 3.91 3.87 4.32 | 4.03 | 5/9 (4.45) |
| S28N+S58M+P101E | 1.81 2.29 2.25 | 2.12 | 0/9 |
| S25M+N37P+V39W | n.d. n.d. n.d. | n.d. | 1/9 (1.74) |
| L30N+S62Y+S103Y | 3.07 2.93 3.81 | 3.27 | 0/9 |
| N37A+W56P+P101C | n.d. n.d. n.d. | n.d. | 1/9 (4.42) |

The closing 6 entries, repeated:

changes,"log10 Kd, replicates","log10 Kd (nM), mean",control signals
S33F+W56M+Q95V,1.32 1.55 1.35,1.40,1/9 (3.91)
K24M+R34V+Q96I,3.91 3.87 4.32,4.03,5/9 (4.45)
S28N+S58M+P101E,1.81 2.29 2.25,2.12,0/9
S25M+N37P+V39W,n.d. n.d. n.d.,n.d.,1/9 (1.74)
L30N+S62Y+S103Y,3.07 2.93 3.81,3.27,0/9
N37A+W56P+P101C,n.d. n.d. n.d.,n.d.,1/9 (4.42)

Parent in this assay: reference entry 0.65, copy in this library 1.68.